In general, inhibition refers to the change of the read-out against control, counted positive when it falls.

By UniProt entry, the sequences of proteins in these tests, tags left out.
UniProt P35372, whole entry, looked up: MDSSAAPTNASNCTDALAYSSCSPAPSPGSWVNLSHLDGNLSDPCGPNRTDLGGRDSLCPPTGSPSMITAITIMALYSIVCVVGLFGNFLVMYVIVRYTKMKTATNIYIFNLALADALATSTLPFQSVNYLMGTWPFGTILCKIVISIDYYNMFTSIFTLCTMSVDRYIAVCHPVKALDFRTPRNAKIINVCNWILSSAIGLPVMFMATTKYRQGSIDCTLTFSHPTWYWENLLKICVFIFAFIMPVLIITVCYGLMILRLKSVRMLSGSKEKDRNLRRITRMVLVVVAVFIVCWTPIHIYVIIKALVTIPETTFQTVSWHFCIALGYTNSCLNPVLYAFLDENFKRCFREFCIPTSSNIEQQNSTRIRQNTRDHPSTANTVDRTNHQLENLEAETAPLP
UniProt P41143, whole entry, looked up: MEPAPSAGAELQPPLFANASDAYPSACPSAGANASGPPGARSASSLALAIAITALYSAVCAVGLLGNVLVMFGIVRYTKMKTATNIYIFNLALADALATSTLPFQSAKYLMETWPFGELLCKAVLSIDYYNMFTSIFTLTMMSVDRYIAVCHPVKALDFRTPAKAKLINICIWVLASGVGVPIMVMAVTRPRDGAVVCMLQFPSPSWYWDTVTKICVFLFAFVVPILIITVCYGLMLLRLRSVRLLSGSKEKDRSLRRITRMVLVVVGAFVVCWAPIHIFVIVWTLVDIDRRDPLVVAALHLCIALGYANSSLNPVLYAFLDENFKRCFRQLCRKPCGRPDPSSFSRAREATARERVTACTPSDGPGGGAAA

Only a part is listed here, and it is no random draw. Calls of active or inactive are those of the source. Rule as the data show it: active = inhibition above about 22% (passing the limit was not always enough); inactive = the rest.

The assay addresses Mu-type opioid receptor (Homo sapiens) + Delta-type opioid receptor (Homo sapiens) (UniProt P35372+P41143). The assay is described as follows: OPRM1-OPRD1 heterodimer inverse agonism – cell-based, luminescence, primary screen (AID 504357).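 Also: 0% = cells with DMSO and 100% = wells without cells with DMSO.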 The settings on record: cell-based MOR-DOR heterodimer luminescence, at 9.3 µM, hits give high values.
With `CCC(=O)Nc1cccc(C(=O)/C=C/c2cc(Br)ccc2OC)c1`, the inhibition is inactive: 1.48%. For the compound `COc1ccccc1C(=O)Nc1ccc2c(c1)nc1n2CCN(C2CCCCC2)C1`, the inhibition is inactive: 13.3%. The figure for `O=C(Cn1cnc2c(NCc3ccccc3)ncnc21)N1CCN(c2ccccn2)CC1` is inactive: 14.5%; for `Cc1ccc(CN2C(=O)c3ccccc3NC23CCN(Cc2ccccc2)CC3)cc1` it is inactive: -11.9%. The figure for `CCCS(=O)(=O)N1CCn2c(nc3ccccc32)C1` is inactive: 3.7%; for `CC(=O)NC(C)c1nc2ccccc2n1CC(=O)N1C(C)CCCC1C` (stereo unspecified) it is inactive: 14.4%. Consider `O=C1NCN(c2ccccc2)C12CCNCC2`, for which the inhibition is inactive: -4.3%. For `COc1ccc(NS(=O)(=O)c2cc(NC(=O)Cn3cnc4c3c(=O)n(C)c(=O)n4C)ccc2C)cc1`, the inhibition was inactive: 11.9%. The figure for `Cn1c(=O)c2c(ncn2CCNC2=NCCCCC2)n(C)c1=O` is inactive: 10.7%. Consider `CCOC(=O)CSc1nc2ccccc2n1CC(=O)N(C(C)C)C(C)C`, for which the inhibition was inactive: 17.5%. Turning to `O=S(=O)(c1ccccc1)N1CCn2c(nc3ccccc32)C1`, the inhibition was inactive: -1.59%. The figure for `Cn1c(=O)c2c(ncn2CC(=O)N2CCN(C(=O)c3ccco3)CC2)n(C)c1=O` is inactive: 20.3%.

Consider `CC(C)NC(=O)Cn1c(SCC(=O)N2c3ccccc3CC2C)nc2ccccc21` (stereo unspecified), for which the inhibition is inactive: 10.6%. In the case of `O=P1(N(CCCl)CCCl)OCCC2CCCCN21` (stereo unspecified), the inhibition was inactive: 8.73%.

On to `O=C(c1ccc(Cl)cc1)N1CCn2c1nc1ccccc12`, for which the inhibition is inactive: 10.7%. As to `O=C(Cn1cnc2c(NCc3ccccc3)ncnc21)NCc1ccc2[nH]ccc2c1`, the inhibition is inactive: 3.46%. In the case of `Cc1ccc(Cn2c(=O)c3c(nc4n3CCN4Cc3ccco3)n(C)c2=O)cc1` it was inactive: 0.58%; in that of `Cc1nc2cc(C(F)(F)F)ccc2n1CCNc1nc(-c2cc(Cl)c(N)c(Cl)c2)cs1`, inactive: 5.7%. In the case of `CC(C)(C)C(=O)N1CCn2c1nc1ccccc12` it was inactive: 17%; in that of `O=C(Cn1c(-c2ccco2)nc2ccccc21)N1CCCCC1`, inactive: 10%. In the case of `Cn1c(=O)c2ncn(CC(=O)Nc3ccc(N4CCOCC4)cc3)c2n(C)c1=O` it was inactive: -2.43%; in that of `CCOC(=O)C1CCCN(C(=O)Cn2cnc3c2c(=O)n(C)c(=O)n3C)C1` (stereo unspecified), inactive: 6.75%. `O=C(C1CCCN1S(=O)(=O)c1cccc2cccnc12)N1CCn2c1nc1ccccc12` (stereo unspecified): the inhibition is inactive: -16.8%.

`CC(c1ccccc1)N1CCn2c(nc3cc(NS(C)(=O)=O)ccc32)C1` (stereo unspecified): the inhibition is inactive: 17.1%.

For the compound `Cc1nc2ccccc2n1C1CC(=O)N(Cc2ccccc2)C1=O` (stereo unspecified), the inhibition is inactive: -11%. Regarding `c1ccc(CN2CCN(CCN3CCn4c3nc3ccccc34)CC2)cc1`, the inhibition is inactive: 8.69%.

These data come from PubChem BioAssay AID504357 (The Scripps Research Institute Molecular Screening Center, 2011).
